Reference: patent publication US12590134B2, “GLP-1 agonist polypeptide compound and salt thereof, synthesis method therefor and use thereof” (Sinopep-Allsino Biopharmaceutical Co., Ltd., priority 2020, dated 2026)

Experiment: Pharmacokinetic comparison experiment in rats, single subcutaneous injection
Format: in vivo
Conditions: male rats, plasma
Protocol: A single subcutaneous injection was performed with a dose of 0.02 mg/kg; blood collection was performed by tail clipping, and the blood collection time points were: 0 h, 15 min, 30 min, 1 h, 2 h, 3 h, 4 h, 6 h, 8 h, 24 h, 48 h and 72 h. The compound concentration in plasma was determined by LC-MS/MS, all data were collected and exported by Unifi 1.9.3 software, and Excel software was used for data calculation. A non-compartmental model of DAS 3.0 software was used to calculate the pharmacokinetic parameters of rats after administration.

Substance: Semaglutide
- AUC(0-t), Mean (n = 3, single SC 0.02 mg/kg, LC-MS/MS, non-compartmental): 2244.71 ng·h/mL
- AUC(0-∞), Mean (single SC 0.02 mg/kg): 2320.02 ng·h/mL
- AUMC(0-t), Mean (single SC 0.02 mg/kg): 54463.48 h * h * μg/L
- AUMC(0-∞), Mean (single SC 0.02 mg/kg): 61264.52 h * h * μg/L
- CLz/F, Mean (single SC 0.02 mg/kg): 0.15 mL/min/kg
- Cmax, Mean (single SC 0.02 mg/kg): 58.30 ng/mL
- R_AUC(t/∞), Mean (single SC 0.02 mg/kg): 96.77%
- Tmax, Mean (single SC 0.02 mg/kg): 18.00 h
- t½z, Mean (single SC 0.02 mg/kg): 12.50 h
